Results from publication PMC2821452 (Synapse (New York, N.Y.), 2010).

The chains behind the UniProt entries cited, without tags or fusion partners.
UniProt P35372, whole entry: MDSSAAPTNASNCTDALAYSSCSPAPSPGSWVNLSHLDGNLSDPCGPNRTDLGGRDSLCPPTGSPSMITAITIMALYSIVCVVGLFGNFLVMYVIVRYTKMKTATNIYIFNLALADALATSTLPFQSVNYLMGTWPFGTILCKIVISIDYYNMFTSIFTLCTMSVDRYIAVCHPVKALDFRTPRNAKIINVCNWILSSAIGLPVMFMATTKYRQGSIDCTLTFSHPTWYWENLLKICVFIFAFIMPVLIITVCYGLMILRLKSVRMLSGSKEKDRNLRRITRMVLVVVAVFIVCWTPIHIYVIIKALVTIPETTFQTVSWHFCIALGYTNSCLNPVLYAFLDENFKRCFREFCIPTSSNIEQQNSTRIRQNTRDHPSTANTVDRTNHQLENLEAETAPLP

Target: cloned human mu opioid receptor (hMOR-CHO cells) (Homo sapiens, UniProt P35372)
Conditions: control cell membranes, Fig. 1A

## Cl.Oc1cccc([C@]23CCC[C@H](C2)N(C/C=C\c2ccccc2)CC3)c1 [KC-2-009, (+)-3-((1R,5S)-2-((Z)-3-Phenylallyl)-2-azabicyclo[3.3.1]nonan-5-yl)phenol hydrochloride]
  EC50: 12 ± 4 nM
